Key:
[1] = target: human μ-opiate receptor (Homo sapiens, UniProt P35372); test: Affinity for μ-opiate receptors, [3H]-DAMGO receptor binding assay on CHO cell membranes; conditions: human μ-opiate receptor in CHO membranes
[2] = target: human ORL1 receptor (Homo sapiens, UniProt P41146); test: Affinity for human ORL1 receptors, [3H]-nociceptin receptor binding assay on CHO cell membranes; conditions: human ORL1 receptor in CHO membranes

Row | Structure (SMILES) | affinity μ-opiate pKi [1] | affinity ORL1 pKi [2]
1 | CN(CCN1CN(c2ccccc2)C2(CCN(CCC3CCC4CC3C4(C)C)CC2)C1=O)C(c1cccs1)C(O)C(O)C(O)CO (stereo not drawn) | 7.4 | 8.1
2 | CN(CCC(=O)c1ccccc1)CCN1CN(c2ccccc2)C2(CCN(CCC3CCC4CC3C4(C)C)CC2)C1=O (stereo not drawn) | 7.0 | 8.0
3 | CNCCCCCN1CN(c2ccccc2)C2(CCN(CCC3CCC4CC3C4(C)C)CC2)C1=O (stereo not drawn) | 7.5 | 8.5
4 | CN(CCN1CN(c2ccccc2)C2(CCN(CCC3CCC4CC3C4(C)C)CC2)C1=O)C(=O)Nc1ccc(Cl)cc1 (stereo not drawn) | 7.0 | 7.9
5 | CNCCCN1CN(c2ccccc2)C2(CCN(CCC3CCC4CC3C4(C)C)CC2)C1=O (stereo not drawn) [Example 13, 8-[2-(6,6-Dimethyl-bicyclo[3.1.1]hept-2-yl)-ethyl]-3-(3-methylamino-propyl)-1-phenyl-1,3,8-triaza-spiro[4.5]decan-4-one] | 7.4 | 8.9
6 | CN(CCCN1CN(c2ccccc2)C2(CCN(CCC3CCC4CC3C4(C)C)CC2)C1=O)CC1(O)CCNCC1 (stereo not drawn) [Example 37, 8-[2-(6,6-Dimethyl-bicyclo[3.1.1]hept-2-yl)-ethyl]-3-{3-[(4-hydroxy-piperidin-4-ylmethyl)-methyl-amino]-propyl}-1-phenyl-1,3,8-triaza-spiro[4.5]decan-4-one] | 7.7 | 8.8
7 | COc1ccc(NC(=O)N(C)CCN2CN(c3ccccc3)C3(CCN(CCC4CCC5CC4C5(C)C)CC3)C2=O)c(OC)c1 (stereo not drawn) | 7.1 | 8.1
8 | CN(CCN1CN(c2ccccc2)C2(CCN(CCC3CCC4CC3C4(C)C)CC2)C1=O)Cc1ccc2ccccc2c1 (stereo not drawn) | 6.7 | 8.2
9 | CN(CCOc1ccccc1)CCN1CN(c2ccccc2)C2(CCN(CCC3CCC4CC3C4(C)C)CC2)C1=O (stereo not drawn) | 6.8 | 7.6
10 | CN(CCN1CN(c2ccccc2)C2(CCN(CCC3CCC4CC3C4(C)C)CC2)C1=O)C(=O)Nc1ccccc1Br (stereo not drawn) | 7.1 | 7.9
11 | CN(CCCN1CN(c2ccccc2)C2(CCN(CCC3CCC4CC3C4(C)C)CC2)C1=O)c1ccccn1 (stereo not drawn) | 7.8 | 8.6
12 | CN(CCN1CN(c2ccccc2)C2(CCN(CCC3CCC4CC3C4(C)C)CC2)C1=O)C(=O)Nc1ccc(-c2ccccc2)cc1 (stereo not drawn) | 6.8 | 7.7
13 | CN(CCCN1CN(c2ccccc2)C2(CCN(CCC3CCC4CC3C4(C)C)CC2)C1=O)C(c1cccs1)C(O)C(O)C(O)CO (stereo not drawn) | 7.4 | 8.1
14 | CN(CCCN1CN(c2ccccc2)C2(CCN(CCC3CCC4CC3C4(C)C)CC2)C1=O)CC(O)C(O)C(O)C(O)CO (stereo not drawn) | 7.4 | 8.1
15 | CN(CCN1CN(c2ccccc2)C2(CCN(CCC3CCC4CC3C4(C)C)CC2)C1=O)Cc1ccccc1 (stereo not drawn) | 7.0 | 8.6
16 | COc1cccc(CN2CCC(O)(CN(C)CCCN3CN(c4ccccc4)C4(CCN(CCC5CCC6CC5C6(C)C)CC4)C3=O)CC2)c1 (stereo not drawn) | 7.4 | 8.2
17 | CN(CCN1CN(c2ccccc2)C2(CCN(CCC3CCC4CC3C4(C)C)CC2)C1=O)C(c1ccco1)C(O)CO (stereo not drawn) [Example 51] | 7.9 | 9.1

Row | Structure (SMILES) | affinity μ-opiate pKi [1] | affinity ORL1 pKi [2]
18 | CN(CCN1CN(c2ccccc2)C2(CCN(CCC3CCC4CC3C4(C)C)CC2)C1=O)Cc1ccncc1 (stereo not drawn) | 7.4 | 8.1
19 | CN(CCCCCCN1CN(c2ccccc2)C2(CCN(CCC3CCC4CC3C4(C)C)CC2)C1=O)C1CCCCC1O (stereo not drawn) | 7.6 | 8.3
20 | CN(CCCN1CN(c2ccccc2)C2(CCN(CCC3CCC4CC3C4(C)C)CC2)C1=O)C1CCCCC1O (stereo not drawn) | 7.4 | 8.2
21 | CCOC(=O)C(C)NC(=O)N(C)CCN1CN(c2ccccc2)C2(CCN(CCC3CCC4CC3C4(C)C)CC2)C1=O (stereo not drawn) | 6.9 | 8.0
22 | CC1(C)C2CCC(CCN3CCC4(CC3)C(=O)N(CCN3CCC(O)(c5ccc(Cl)c(C(F)(F)F)c5)CC3)CN4c3ccccc3)C1C2 (stereo not drawn) | 7.7 | 9.2
23 | CN(CCN1CN(c2ccccc2)C2(CCN(CCC3CCC4CC3C4(C)C)CC2)C1=O)C(=O)Nc1ccccc1F (stereo not drawn) | 7.1 | 7.9
24 | CNCCCCCCN1CN(c2ccccc2)C2(CCN(CCC3CCC4CC3C4(C)C)CC2)C1=O (stereo not drawn) | 7.4 | 9.1
25 | CN(CCN1CN(c2ccccc2)C2(CCN(CCC3CCC4CC3C4(C)C)CC2)C1=O)C(=O)Nc1ccc(Oc2ccccc2)cc1 (stereo not drawn) | 7.0 | 8.1
26 | CN(CCCCCN1CN(c2ccccc2)C2(CCN(CCC3CCC4CC3C4(C)C)CC2)C1=O)CC1(O)CCNCC1 (stereo not drawn) | 7.2 | 9.4
27 | CN(CCN1CN(c2ccccc2)C2(CCN(CCC3CCC4CC3C4(C)C)CC2)C1=O)CCn1c(=O)[nH]c2ccccc2c1=O (stereo not drawn) | 7.0 | 7.9
28 | CN(CCN1CN(c2ccccc2)C2(CCN(CCC3CCC4CC3C4(C)C)CC2)C1=O)C1CCCC1O (stereo not drawn) | 7.3 | 8.0
29 | COC1(CN(C)CCCN2CN(c3ccccc3)C3(CCN(CCC4CCC5CC4C5(C)C)CC3)C2=O)CCNCC1 (stereo not drawn) | 8.1 | 8.5
30 | CCCCOC(=O)c1ccc(NC(=O)N(C)CCN2CN(c3ccccc3)C3(CCN(CCC4CCC5CC4C5(C)C)CC3)C2=O)cc1 (stereo not drawn) | 6.8 | 8.0
31 | CNCCCCN1CN(c2ccccc2)C2(CCN(CCC3CCC4CC3C4(C)C)CC2)C1=O (stereo not drawn) [Example 14] | 7.2 | 9.2
32 | CN(CCN1CN(c2ccccc2)C2(CCN(CCC3CCC4CC3C4(C)C)CC2)C1=O)C(=O)Nc1cccc(Cl)c1 (stereo not drawn) | 7.1 | 8.2
33 | CN(CCN1CN(c2ccccc2)C2(CCN(CCC3CCC4CC3C4(C)C)CC2)C1=O)C(=O)Nc1cc(C(F)(F)F)cc(C(F)(F)F)c1 (stereo not drawn) | 6.9 | 7.8

Source: patent US7241770B2 (priority 2003, dated 2007)
